ChEMBL document CHEMBL1140740, “Discovery of benzisoxazoles as potent inhibitors of chaperone heat shock protein 90” (J Med Chem, 2008)

Molecular target: Heat shock protein HSP 90-alpha (Homo sapiens, UniProt P07900)

Compound: Oc1cc(O)c(-c2noc3ccc(NCCN4CCOCC4)cc23)cc1Cl
- IC50: 30 nM

Compound: Oc1ccc2c(-c3cc(Br)c(O)cc3O)noc2c1
- IC50: 190 nM
